Molecular target: FcγRI (UniProt P12314)
Test: plate binding assay, O.D. 650 against antibody concentration (format not described in Example 4)

Protein sequences, listed by entry. Tags and fused reporters are not part of them. Residues count along the entry.
UniProt P12314, 16-288 limits assumed: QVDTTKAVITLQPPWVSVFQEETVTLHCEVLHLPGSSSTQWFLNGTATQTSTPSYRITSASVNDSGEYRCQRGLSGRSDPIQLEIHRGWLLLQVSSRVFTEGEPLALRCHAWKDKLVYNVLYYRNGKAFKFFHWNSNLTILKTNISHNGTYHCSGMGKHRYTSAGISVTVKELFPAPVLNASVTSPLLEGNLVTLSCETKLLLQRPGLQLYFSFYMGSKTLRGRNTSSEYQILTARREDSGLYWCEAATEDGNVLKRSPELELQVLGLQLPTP

## LALA (antibody)
  EC50 (read off the curve): 90 nM
